Source: publication PMC9631991

Target: ATG4b WT (full-length ATG4b) (human) (UniProt Q9Y4P1)

LC3B-115 (residues 1-115) (from UniProt Q9GZQ8 1-115) (domain or fragment)
inhibition of cleavage of 1 uM pro-LC3B to LC3B-I by 50 nM ATG4b, increasing LC3B-115, mass spectrometry: 15 nM
